Literature values as cited in US20260210975A1, “DIAGNOSIS AND TREATMENT OF LONG-COVID” (priority 2022, published 2026).

By UniProt entry, the sequences of proteins in these tests, tags left out. Where a name states a change or a piece, a line headed by the entry shows the natural chain unless it says otherwise.
UniProt Q12809: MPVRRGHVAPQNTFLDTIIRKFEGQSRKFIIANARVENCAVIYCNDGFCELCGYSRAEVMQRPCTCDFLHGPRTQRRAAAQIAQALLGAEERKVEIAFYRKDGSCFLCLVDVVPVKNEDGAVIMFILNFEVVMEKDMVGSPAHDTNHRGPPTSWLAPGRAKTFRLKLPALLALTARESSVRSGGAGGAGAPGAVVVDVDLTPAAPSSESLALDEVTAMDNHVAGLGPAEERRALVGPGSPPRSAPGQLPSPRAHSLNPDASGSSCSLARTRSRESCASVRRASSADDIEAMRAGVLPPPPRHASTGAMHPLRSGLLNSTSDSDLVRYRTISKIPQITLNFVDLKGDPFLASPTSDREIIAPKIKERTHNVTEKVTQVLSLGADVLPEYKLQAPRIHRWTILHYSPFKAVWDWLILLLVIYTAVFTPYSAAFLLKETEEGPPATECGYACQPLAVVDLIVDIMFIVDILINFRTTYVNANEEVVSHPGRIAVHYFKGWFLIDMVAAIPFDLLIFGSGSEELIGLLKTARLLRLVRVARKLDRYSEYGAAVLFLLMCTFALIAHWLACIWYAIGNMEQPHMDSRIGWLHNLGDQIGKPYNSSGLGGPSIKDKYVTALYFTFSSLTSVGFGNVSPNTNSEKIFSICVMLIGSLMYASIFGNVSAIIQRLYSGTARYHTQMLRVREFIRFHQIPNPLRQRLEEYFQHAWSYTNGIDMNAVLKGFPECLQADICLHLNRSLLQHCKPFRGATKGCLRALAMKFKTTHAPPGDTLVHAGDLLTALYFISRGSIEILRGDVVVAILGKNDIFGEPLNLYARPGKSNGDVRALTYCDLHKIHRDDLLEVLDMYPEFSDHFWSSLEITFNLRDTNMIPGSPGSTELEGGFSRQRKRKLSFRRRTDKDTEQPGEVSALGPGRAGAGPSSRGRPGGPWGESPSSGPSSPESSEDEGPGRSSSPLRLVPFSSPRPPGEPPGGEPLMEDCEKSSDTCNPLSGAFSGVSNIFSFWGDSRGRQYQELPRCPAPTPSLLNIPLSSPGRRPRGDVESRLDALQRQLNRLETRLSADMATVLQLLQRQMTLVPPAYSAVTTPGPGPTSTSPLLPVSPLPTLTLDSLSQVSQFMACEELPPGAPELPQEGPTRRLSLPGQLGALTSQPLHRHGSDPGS

Target: KCNH2 (Homo sapiens, UniProt Q12809)

In the case of `O=C1Cc2cc(CCN3CCN(c4nsc5ccccc45)CC3)c(Cl)cc2N1` [ziprasidone], the IC50 is listed as roughly 169 nM.
